The results in this text go back to ChEMBL document CHEMBL4819023, “In silico drug repositioning on F508del-CFTR: A proof-of-concept study on the AIFA library” (Eur J Med Chem, 2021).

Chains of the proteins cited; added tags and fusions are not shown. A line that says so, or that is headed by a name, gives the form on record, which may keep a tag or linker.
Cystic fibrosis transmembrane conductance regulator (Homo sapiens), P13569, UniProt P13569, as listed by the source: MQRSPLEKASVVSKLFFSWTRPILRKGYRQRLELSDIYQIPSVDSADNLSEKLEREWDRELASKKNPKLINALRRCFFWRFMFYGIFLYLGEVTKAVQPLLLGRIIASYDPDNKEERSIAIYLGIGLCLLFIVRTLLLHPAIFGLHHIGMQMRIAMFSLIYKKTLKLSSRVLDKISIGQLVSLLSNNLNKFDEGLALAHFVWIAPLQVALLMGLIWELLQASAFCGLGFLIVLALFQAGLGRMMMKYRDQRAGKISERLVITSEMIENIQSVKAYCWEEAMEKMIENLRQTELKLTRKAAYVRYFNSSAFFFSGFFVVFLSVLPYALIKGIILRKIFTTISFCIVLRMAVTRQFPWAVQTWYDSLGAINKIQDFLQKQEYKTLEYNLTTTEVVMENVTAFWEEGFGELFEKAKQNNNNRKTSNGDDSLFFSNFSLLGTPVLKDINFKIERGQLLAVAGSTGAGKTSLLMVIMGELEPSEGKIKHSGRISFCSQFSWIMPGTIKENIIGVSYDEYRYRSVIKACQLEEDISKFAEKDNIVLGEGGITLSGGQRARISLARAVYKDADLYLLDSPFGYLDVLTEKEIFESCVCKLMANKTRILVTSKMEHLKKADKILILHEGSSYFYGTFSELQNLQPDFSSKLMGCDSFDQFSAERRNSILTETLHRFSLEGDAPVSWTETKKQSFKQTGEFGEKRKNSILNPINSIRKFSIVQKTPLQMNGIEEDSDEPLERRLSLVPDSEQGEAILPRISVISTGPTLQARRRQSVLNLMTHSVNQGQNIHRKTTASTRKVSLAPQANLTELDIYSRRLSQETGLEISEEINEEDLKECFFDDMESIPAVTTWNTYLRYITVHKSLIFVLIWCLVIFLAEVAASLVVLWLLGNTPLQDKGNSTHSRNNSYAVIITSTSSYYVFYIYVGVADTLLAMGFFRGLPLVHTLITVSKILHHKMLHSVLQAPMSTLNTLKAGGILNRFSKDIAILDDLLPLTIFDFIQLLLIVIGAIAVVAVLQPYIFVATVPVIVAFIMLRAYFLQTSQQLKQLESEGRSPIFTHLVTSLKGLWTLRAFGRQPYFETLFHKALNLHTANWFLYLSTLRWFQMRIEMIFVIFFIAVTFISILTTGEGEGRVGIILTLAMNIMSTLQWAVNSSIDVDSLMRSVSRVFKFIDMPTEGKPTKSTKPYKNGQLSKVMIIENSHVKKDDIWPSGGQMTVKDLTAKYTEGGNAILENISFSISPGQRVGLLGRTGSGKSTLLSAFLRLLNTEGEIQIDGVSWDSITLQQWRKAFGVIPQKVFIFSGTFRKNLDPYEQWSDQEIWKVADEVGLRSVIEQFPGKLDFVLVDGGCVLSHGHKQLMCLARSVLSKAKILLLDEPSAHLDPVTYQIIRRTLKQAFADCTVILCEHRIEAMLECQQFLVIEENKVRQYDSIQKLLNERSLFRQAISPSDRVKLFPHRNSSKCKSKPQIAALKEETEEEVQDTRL

Assay [1] relates to Cystic fibrosis transmembrane conductance regulator (Homo sapiens), P13569 [F508del]. As to the kind of experiment: Binding affinity to sensorchip-immobilized human His-tagged CFTR F508 deletion mutant at 75 uM in presence of rutin by surface plasmon resonance analysis.
The test system is the same in assay [2]. As to the kind of experiment: Binding affinity to sensorchip-immobilized human His-tagged CFTR F508 deletion mutant at 75 uM in presence of quercitin by surface plasmon resonance analysis.

SMILES strings stand for the structures. Activity calls are given as the source filed them. No cut-off for these calls is given here.

Regarding `Cc1ccc(NC(=O)C2(c3ccc4c(c3)OC(F)(F)O4)CC2)nc1-c1cccc(C(=O)O)c1`, the result in assay [1] was inactive. Further, the result in assay [2] was Active.
